# Results taken from patent US10183008B2, “Treatment of prolonged status epilepticus” (University of South Carolina, priority 2011, dated 2019).
# Tests used:
# [1] = tested on: tonic inhibition (GABAergic tonic current); experiment: Brain slice whole-cell electrophysiology: tonic current in dentate granule cells; assay type: cell-based, rat; details: DZP 1 μM, STP 100 μM, n=3-4
# [2] = tested on: lithium-pilocarpine model of S.E.; experiment: Lithium-pilocarpine model of status epilepticus, behavioral seizure scoring (Racine scale); assay type: in vivo, rat; details: prolonged SE (45 min after stage 3 onset) vs brief SE
structure (smiles),measurement,setting,value
"CC(C)(C)C(O)/C=C/c1ccc2c(c1)OCO2 (centres unmarked) [STP, 1-(3,4-methylenedioxyphenyl)-4,4-dimethylpent-1-en-3-ol]",potentiation of tonic current during prolonged SE,[1],but not STP
same,pharmacoresistance following prolonged SE (shift of ED50 for seizure termination),[2],develops little pharmacoresistance
